Reference: patent US8980906B2, “Pyridonemorphinan analogs and biological activity on opioid receptors” (Purdue Pharma L.P., priority 2012, dated 2015)

Sequences of proteins named here, by UniProt entry; tags and fusion partners are left off.
UniProt P41145, whole entry: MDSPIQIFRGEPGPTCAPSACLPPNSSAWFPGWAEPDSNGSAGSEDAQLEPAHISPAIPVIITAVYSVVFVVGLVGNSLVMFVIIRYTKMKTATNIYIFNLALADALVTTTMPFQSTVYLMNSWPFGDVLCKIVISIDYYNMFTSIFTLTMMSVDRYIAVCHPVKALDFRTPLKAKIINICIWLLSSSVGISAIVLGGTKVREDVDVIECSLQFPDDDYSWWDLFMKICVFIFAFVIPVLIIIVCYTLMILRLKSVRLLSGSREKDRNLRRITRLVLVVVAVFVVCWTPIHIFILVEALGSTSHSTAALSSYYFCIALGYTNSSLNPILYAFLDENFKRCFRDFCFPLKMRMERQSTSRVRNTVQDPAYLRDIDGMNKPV

Target: κ-opioid receptor (Homo sapiens (Human), UniProt P41145)
Assay: κ-opioid receptor radioligand dose-displacement binding assay ([3H]-U69,593)
Settings: read-out: Ki (nM) Opioid Receptor κ; binding affinity, [3H]-U69,593 displacement
Experimental: κ-Opioid Receptor Binding Assay Procedures: Membranes from HEK-293 cells, CHO or U-2 OS cells expressing the recombinant human kappa opioid receptor (κ) were prepared by lysing cells in ice cold hypotonic buffer (2.5 mM MgCl2, 50 mM HEPES, pH 7.4) (10 mL/10 cm dish) followed by homogenization with a tissue grinder/Teflon pestle. Membranes were collected by centrifugation at 30,000×g for 15 min at 4° C. and pellets were resuspended in hypotonic buffer to a final concentration of 1-3 mg/mL. Protein concentrations were determined using the BioRad protein assay reagent with bovine serum albumen as standard, Aliquots of κ receptor membranes were stored at […].
Radioligand dose displacement assays used 0.4 nM [^3H]-U69,593 (GE Healthcare, Piscataway, N.J.; 40 Ci/mmole) with 15 μg membrane protein (recombinant κ opioid receptor expressed in HEK 293 cells; in-house prep) in a final volume of 200 μl binding buffer (5% DMSO, 50 mM Trizma base, pH 7.4). Non-specific binding was determined in the presence of 10 μM unlabeled naloxone or U69,593. All reactions were performed in 96-well polypropylene plates for 1 hour at a temperature of about 25° C. […] Fifty μl/well scintillation cocktail (Perkin Elmer, Shelton, Conn.) was added and plates were counted in a Packard Top-Count for 1 min/well.

COc1ccc2c(c1)[C@]13CCN(CC4CC4)[C@H](C2)[C@]1(O)Cc1cc(C(=O)O)c(=O)[nH]c1C3
Ki: 728 nM
